Experimental data: paper PMC3551298 (Arteriosclerosis, thrombosis, and vascular biology, 2012)

Chains of the proteins cited; added tags and fusions are not shown. Residues count along the entry.
UniProt P26022, 18-381: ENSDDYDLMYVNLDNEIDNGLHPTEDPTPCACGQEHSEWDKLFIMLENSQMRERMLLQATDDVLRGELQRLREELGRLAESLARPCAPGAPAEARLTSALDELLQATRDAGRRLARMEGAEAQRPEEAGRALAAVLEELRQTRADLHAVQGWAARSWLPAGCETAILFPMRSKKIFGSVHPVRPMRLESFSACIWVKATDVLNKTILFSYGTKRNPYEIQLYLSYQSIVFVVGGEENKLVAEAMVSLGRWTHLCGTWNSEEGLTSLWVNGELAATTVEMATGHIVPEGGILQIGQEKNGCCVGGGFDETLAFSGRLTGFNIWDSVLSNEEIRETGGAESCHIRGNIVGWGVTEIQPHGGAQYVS

Tests used:
[1] = target: long pentraxin 3 (PTX3), full length (human, UniProt P26022); assay: SPR
[2] = target: biotinylated PTX3 (bPTX3) (human, UniProt P26022, biotin (biotinylated; sites not stated)); assay: ELISA

B1: full-length human TSG-6 (natural protein)
chain: WGFKDGIFHNSIWLERAAGVYHREARSGKYKLTYAEAKAVCEFEGGHLATYKQLEAARKIGFHVCAAGWMAKGRVGYPIVKPGPNCGFGKTGIIDYGIRLNRSERWDAYCYNPHAKECGGVFTDPKQIFKSPGFPNEYEDNQICYWHIRLKYGQRIHLSFLDFDLEDDPGCLADYVEIYDSYDDVHGFVGRYCGDELPDDIISTGNVMTLKFLSDASVTAGGFQIKYVAMDPVSKSSQGKNTSTTSTGNKNFLAGRFSHL
Kd [1]: 314 nM
IC50 [2]: ~100 nM
